{"source": "paper PMC9919490", "about": "“Synthesis and Biological Evaluation of Novel Dispiro-Indolinones with Anticancer Activity” (Molecules, 2023)", "tested_on": "P388", "format": "in vivo", "procedure": "To preliminary estimate the antitumor effect of the compound in vivo, transplant P388 and HCT116 xenograft mouse models were used.\nPrior to the trials, the animals were split into different groups (five mice per group). One group was monitored as a control population, where the animals were kept untreated, while the other groups were subjected to the tested compound. […] Four independent trials were carried out.\nFor the first evaluation, the sample was initially injected i.p. on day 2 of the study, and the treatment was subsequently continued during the following 9 days (total 10 d course). The typical doses were calculated considering the average body weight of the animals (20 g) and ranged between groups 1 and 3; group 4 was assigned as a control population. […] To verify the obtained results, we performed the second evaluation using the following schedule: the first group was administered i.p. with 500 mg/kg (5000 mg/kg), the second group was given 750 mg/kg (7500 mg/kg), and the third group was given 1000 mg/kg (10,000 mg/kg). We also carried out the third trial with an appropriate dose of 1000 mg/kg. For p.o. administration (trial 4), we used a single dose (170 mg/kg) of the unmodified compound; the cumulative dose was 1700 mg/kg.\nDBA2 mice were used as donors of cancerous mass; a total of 50 animals were recruited. Twenty-three conventional, immunodeficient female mice (BALB/c nude, 20–23 g) were housed in RAMS and used as donors and recipients for HCT116 cells.\nFor the evaluation of the compound against leucosis in vivo, we used 5 and 8 passages of P388 culture. […]"}
{"compound": "CCOc1ccc(N2C(=O)C3(NC2=S)C(c2ccc(Cl)cc2)CN(C)C32C(=O)Nc3ccc(Br)cc32)cc1", "note": "(stereo not shown) [Compound 29]", "values": [{"measurement": "anticancer effect after p.o. administration", "setting": "fourth trial, unmodified compound, p.o. 170 mg/kg o.d. 10 days", "value": "ineffective"}, {"measurement": "toxic effects after p.o. administration", "setting": "mouse, in vivo, po, 170 mg/kg", "value": "no toxic effects were observed"}, {"measurement": "outcome at 1200 mg/kg", "setting": "sample dose 1200 mg/kg", "value": "lethal outcomes"}, {"measurement": "anticancer effect at lower doses", "setting": "second trial, lower doses (500 mg/kg o.d.)", "value": "did not provide any statistically significant results"}]}
